One assay deals with Nociceptin receptor (Homo sapiens, UniProt P41146). The note with it: HEK293.
In the next assay the target is Mu-type opioid receptor (Homo sapiens, UniProt P35372). The note with it: CHO-K1.
For assay [1], the target named is Kappa-type opioid receptor (Homo sapiens, UniProt P41145). The settings on record: HEK293.

Amino acid sequences for entries named in this document (tags omitted).
UniProt P41146, whole entry: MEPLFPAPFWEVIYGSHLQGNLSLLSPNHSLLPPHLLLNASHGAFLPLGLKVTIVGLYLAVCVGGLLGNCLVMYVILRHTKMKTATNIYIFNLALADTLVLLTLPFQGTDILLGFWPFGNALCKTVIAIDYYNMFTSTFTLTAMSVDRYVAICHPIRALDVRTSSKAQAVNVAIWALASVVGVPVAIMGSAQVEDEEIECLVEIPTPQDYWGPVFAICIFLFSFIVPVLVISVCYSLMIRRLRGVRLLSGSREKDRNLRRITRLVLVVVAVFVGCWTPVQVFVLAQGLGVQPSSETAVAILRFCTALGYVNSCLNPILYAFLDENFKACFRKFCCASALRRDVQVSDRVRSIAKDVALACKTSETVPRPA
UniProt P35372, whole entry: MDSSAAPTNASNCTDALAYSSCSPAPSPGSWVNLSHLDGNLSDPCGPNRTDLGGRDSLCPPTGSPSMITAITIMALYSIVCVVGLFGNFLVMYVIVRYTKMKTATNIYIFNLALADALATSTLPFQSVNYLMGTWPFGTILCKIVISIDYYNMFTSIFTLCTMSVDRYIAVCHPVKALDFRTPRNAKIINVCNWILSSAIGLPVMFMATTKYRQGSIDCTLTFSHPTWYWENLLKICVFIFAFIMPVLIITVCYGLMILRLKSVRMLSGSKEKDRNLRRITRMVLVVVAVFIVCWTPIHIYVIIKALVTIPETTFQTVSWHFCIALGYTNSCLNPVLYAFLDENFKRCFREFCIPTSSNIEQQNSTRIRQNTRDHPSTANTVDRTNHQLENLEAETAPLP
UniProt P41145, whole entry: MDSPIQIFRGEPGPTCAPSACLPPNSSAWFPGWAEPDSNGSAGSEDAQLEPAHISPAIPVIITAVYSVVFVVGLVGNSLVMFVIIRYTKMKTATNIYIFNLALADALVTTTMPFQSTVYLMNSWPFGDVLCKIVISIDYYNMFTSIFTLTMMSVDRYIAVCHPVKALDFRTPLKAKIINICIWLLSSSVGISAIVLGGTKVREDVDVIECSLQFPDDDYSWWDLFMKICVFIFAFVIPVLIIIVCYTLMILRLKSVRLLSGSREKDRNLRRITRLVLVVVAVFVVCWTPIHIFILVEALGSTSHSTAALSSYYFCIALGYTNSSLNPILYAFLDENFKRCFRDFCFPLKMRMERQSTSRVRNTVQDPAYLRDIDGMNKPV

By Emax is commonly meant the maximal effect, on the per cent scale that the assay sets. Consider `CC1CN(c2nc3ccccc3n2C2CCN(C3(CO)CCCCCCC3)CC2)CCN1` (configuration not stated), for which the maximum response (Emax) at Nociceptin receptor is 151%; on Mu-type opioid receptor, 15%; in assay [1], 18%.

Consider `CC1(C)CN(c2nc3ccccc3n2C2CCN(C3(CO)CCCCCCC3)CC2)CCN1`, for which the maximal effect (Emax) on Nociceptin receptor was 132%; on Mu-type opioid receptor it was 2%; in assay [1], 14%.

For `OCC1(N2CCC(n3c(-c4ccc(Cl)cc4)nc4ccccc43)CC2)CCCCCCC1`, the maximum response (Emax) at Nociceptin receptor amounted to 161%; on Mu-type opioid receptor it was 30%; in assay [1] it was 1%.

As for `O=c1[nH]c2ccccc2n1C1CCN(C2(CO)CCCCCCC2)CC1`, the values for the maximum response (Emax) (on Nociceptin receptor; at Mu-type opioid receptor; in assay [1]) were 136%, 13% and 50%, respectively.

Turning to `OCC1(N2CCC(n3c(N4CC5CNCC5C4)nc4ccccc43)CC2)CCCCCCC1` (configuration not stated), the maximal effect (Emax) was 144% at Nociceptin receptor, 14% at Mu-type opioid receptor and 22% in assay [1].

Take `OCC1(N2CCC(n3c(-c4ccc(F)c(Cl)c4)nc4ccccc43)CC2)CCCCC1`: the maximal response (Emax) at Nociceptin receptor stood at 106%; on Mu-type opioid receptor, 6%.

Consider `OCC1(N2CCC(n3c(-c4ccc(F)c(Cl)c4)nc4ccccc43)CC2)CCCCCCC1`, for which the Emax at Nociceptin receptor amounted to 140%; on Mu-type opioid receptor, 12%.

With `CN1CCN(c2nc3ccccc3n2C2CCN(C3(CO)CCCCCCC3)CC2)CC1`, the maximal effect (Emax) at Nociceptin receptor came out at 104%; on Mu-type opioid receptor, 13%; in assay [1], 34%.

Source of the values: ChEMBL document CHEMBL1649335 (Bioorg Med Chem, 2010).
